This is a selection; strong and weak results do not stand in their true shares. Activity calls are given as the source filed them.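 How the source made its calls: active means mean inhibition across replicates above about 50% (limit read from the data); inactive means the rest.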

Amino acid sequences for entries named in this document (tags omitted).
UniProt Q96LD8, whole entry: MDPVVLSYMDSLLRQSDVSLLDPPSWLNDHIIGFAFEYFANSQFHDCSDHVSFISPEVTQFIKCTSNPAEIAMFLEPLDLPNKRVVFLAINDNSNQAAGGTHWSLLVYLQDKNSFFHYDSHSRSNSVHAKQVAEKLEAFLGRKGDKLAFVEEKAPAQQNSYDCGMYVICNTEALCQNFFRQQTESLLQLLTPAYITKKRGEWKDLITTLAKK

Inhibition data for two molecules are collected here from PubChem BioAssay AID488912 (Sanford-Burnham Center for Chemical Genomics, 2010).

The target in this assay is Sentrin-specific protease 8 (Homo sapiens) (UniProt Q96LD8). The assay can be described thus: SENP8 protease inhibitors, retest, confirmation, biochemical, luminescence, single concentration (AID 488912). The conditions noted are these: Recombinant SENP8, Z-RLRGG-aminoluciferin luminescence, 60 min; at 12.5 µM; stronger effect = higher value.
Usually inhibition stands for the change of the read-out against control, counted positive when it falls. `CC1=C2N=C(C=C3N=C(C(C)=C4[N-][C@@](C)([C@@H]5N=C1[C@](C)(CCC(=O)NC[C@@H](C)OP(=O)([O-])O[C@H]1[C@@H](O)[C@@H](n6cnc7cc(C)c(C)cc76)O[C@@H]1CO)[C@H]5CC(N)=O)[C@@](C)(CC(N)=O)[C@@H]4CCC(N)=O)[C@@](C)(CC(N)=O)[C@@H]3CCC(N)=O)C(C)(C)[C@@H]2CCC(N)=O.[C-]#N.[Co+3]`: the inhibition was inactive: 32.5%.
For `CP(=O)(Nc1ccccn1)Oc1ccc(Cl)cc1` (configuration not stated) the value was inactive: 9.3%.
